# Assay results: ChEMBL document CHEMBL4308853, “Design, Synthesis, and Pharmacological Evaluation of Novel β2/3 Subunit-Selective γ-Aminobutyric Acid Type A (GABAA) Receptor Modulators” (J Med Chem, 2018)
# Sequences of proteins named here, by UniProt entry; tags and fusion partners are left off. Residues count along the entry.
# UniProt P14867, 28-456 limits assumed: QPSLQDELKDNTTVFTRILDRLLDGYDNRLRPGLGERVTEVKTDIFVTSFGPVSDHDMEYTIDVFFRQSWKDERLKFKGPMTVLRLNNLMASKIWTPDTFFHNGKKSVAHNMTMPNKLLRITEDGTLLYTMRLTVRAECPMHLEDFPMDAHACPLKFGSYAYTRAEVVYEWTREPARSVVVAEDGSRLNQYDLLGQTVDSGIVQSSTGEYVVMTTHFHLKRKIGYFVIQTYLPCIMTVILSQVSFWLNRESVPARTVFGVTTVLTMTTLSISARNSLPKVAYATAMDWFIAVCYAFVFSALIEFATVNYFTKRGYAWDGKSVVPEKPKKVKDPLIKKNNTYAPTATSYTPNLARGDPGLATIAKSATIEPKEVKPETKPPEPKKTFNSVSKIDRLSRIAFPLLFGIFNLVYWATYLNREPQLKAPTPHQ
# UniProt P18507, 40-475 limits assumed: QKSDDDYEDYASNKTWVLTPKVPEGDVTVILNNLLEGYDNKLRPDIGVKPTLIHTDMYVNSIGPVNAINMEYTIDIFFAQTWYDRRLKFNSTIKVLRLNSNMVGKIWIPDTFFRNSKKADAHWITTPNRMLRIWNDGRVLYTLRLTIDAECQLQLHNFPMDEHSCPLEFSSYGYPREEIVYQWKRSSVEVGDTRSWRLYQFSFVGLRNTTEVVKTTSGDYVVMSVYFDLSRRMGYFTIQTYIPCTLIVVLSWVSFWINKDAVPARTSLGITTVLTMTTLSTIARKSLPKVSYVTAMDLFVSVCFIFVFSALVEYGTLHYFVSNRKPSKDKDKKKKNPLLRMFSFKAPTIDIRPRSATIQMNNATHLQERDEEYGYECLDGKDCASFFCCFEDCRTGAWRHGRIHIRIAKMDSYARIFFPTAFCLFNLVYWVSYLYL
# UniProt P18505, 26-474 limits assumed: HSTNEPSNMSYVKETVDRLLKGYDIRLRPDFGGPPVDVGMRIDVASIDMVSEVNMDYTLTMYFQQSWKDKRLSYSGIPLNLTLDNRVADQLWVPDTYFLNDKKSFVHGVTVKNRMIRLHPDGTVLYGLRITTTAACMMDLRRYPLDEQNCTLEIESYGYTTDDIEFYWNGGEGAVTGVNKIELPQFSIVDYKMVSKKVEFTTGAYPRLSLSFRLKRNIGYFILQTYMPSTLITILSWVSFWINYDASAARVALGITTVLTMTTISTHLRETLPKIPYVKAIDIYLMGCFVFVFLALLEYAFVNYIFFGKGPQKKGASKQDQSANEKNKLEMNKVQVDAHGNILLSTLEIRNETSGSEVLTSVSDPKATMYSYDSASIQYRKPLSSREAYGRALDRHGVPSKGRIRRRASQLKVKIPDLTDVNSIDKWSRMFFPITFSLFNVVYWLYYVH
# Target: GABA A receptor alpha-1/beta-1/gamma-2 (Homo sapiens, UniProt P14867+P18507+P18505)
# Experiment: Positive allosteric modulation of GABA-A alpha1beta1gamma2S receptor (unknown origin) expressed in Xenopus laevis oocytes assessed as increase in GABA-induced chloride current at 300 uM after 15 mins at -70 mV holding potential by two-microelectrode voltage clamp method relative to control
# Assay type: cell-based
# Details: 0.25 h
smiles,measurement,value
CC(=C(C#N)C#N)c1ccc(Cl)cc1Cl,Emax,854%
